# Assay results: patent US12427149B2, “Methods and compositions for the prevention and treatment of hearing loss” (Ting Therapeutics, Inc., priority 2019, dated 2025)
# Legend:
# [1] = Cisplatin-induced hearing loss in adult mice, oral delivery, ABR threshold shifts; format: in vivo, FVB mice; details: day 21; cisplatin 30 mg/kg and dabrafenib 100 mg/kg co-treatment; vs cisplatin alone
# [2] = Noise-induced hearing loss in adult mice, oral delivery, ABR threshold shifts; format: in vivo, FVB mice; details: day 14
# Method: Now referring to FIGS. 8A and 8B, Dabrafenib is protective against noise-induced hearing loss in adult mice when delivered orally forty-five minutes before the noise exposure. (A) Schedule of administration of dabrafenib and noise exposure to FVB mice (males and females). (B) Reduced ABR threshold shifts of 18.1-21.9 dB in average were recorded on day 14 after first day of dabrafenib and noise exposure, mean±SEM, **, P<0.01, ***, P<0.001, compared to carrier by two-way ANOVA followed by a Bonferroni comparison.
# In this example, compounds for oral delivery were dissolved in the carrier 10% DMSO, 40% PF5300, 5% Tween-80 and 45% saline (0.9% NaCl) and were given in a volume of 10 ml/kg. In FIG. 13B Dabrafenib (2×60 mg/kg/day) is given by oral delivery continuously for 3 days post-noise. In FIG. 13C AZD5438 (2×35 mg/kg/day) is given by oral delivery continuously for 3 days post-noise. In FIG. 13D complete protection against noise is achieved with combination of the two drugs for 3 days post-noise (dabrafenib (2×60 mg/kg/day) and AZD5438 (2×35 mg/kg/day), mean±SEM, *, P<0.05, **, P<0.01, compared to carrier alone by unpaired two-tailed Student's t-test
compound,measurement,setting,value
CC(C)(C)c1nc(-c2cccc(NS(=O)(=O)c3c(F)cccc3F)c2F)c(-c2ccnc(N)n2)s1 [Dabrafenib],reduced ABR threshold shifts (average),[1],11.8-15.0 dB
same,reduced ABR threshold shifts (average),"[2]; dabrafenib 60 mg/kg x2 daily and noise exposure, vs carrier (FIG. 8B)",18.1-21.9 dB
same,reduced ABR threshold shifts (average),"[2]; dabrafenib 60 mg/kg x2 daily and noise exposure, vs carrier (FIG. 8B), listed as dabrafenib",13.5-21.2 dB
same,reduced ABR threshold shifts (average),"[2]; dabrafenib 100 mg/kg and noise exposure, vs carrier (FIG. 7B)",18.1-21.9 dB
